Data taken from US10590158B2 (priority 2015, dated 2020).

What was measured:
293T cells = experiment: Cytotoxic assay (CellTiter-Glo, 72 h) on 293T cells; format: cell-based; conditions: read-out: IC50 293T, 293T human embryonic kidney cell line
MES SA cells = experiment: Cytotoxic assay (CellTiter-Glo, 72 h) on MES SA cells; format: cell-based; conditions: read-out: IC50 MES SA, MES SA uterine sarcoma cells

Substance: N-Ac Calicheamicin γ
- IC50 (293T cells): 0.151 nM
- IC50 (MES SA cells): 0.0297 nM
